Values of other authors in patent publication US20210353564A1, “TREATMENTS FOR ZIKA VIRUS INFECTION” (Saint Louis University, priority 2018, published 2021).

Chains of the proteins cited; added tags and fusions are not shown.
UniProt P11511, whole entry, species assumed: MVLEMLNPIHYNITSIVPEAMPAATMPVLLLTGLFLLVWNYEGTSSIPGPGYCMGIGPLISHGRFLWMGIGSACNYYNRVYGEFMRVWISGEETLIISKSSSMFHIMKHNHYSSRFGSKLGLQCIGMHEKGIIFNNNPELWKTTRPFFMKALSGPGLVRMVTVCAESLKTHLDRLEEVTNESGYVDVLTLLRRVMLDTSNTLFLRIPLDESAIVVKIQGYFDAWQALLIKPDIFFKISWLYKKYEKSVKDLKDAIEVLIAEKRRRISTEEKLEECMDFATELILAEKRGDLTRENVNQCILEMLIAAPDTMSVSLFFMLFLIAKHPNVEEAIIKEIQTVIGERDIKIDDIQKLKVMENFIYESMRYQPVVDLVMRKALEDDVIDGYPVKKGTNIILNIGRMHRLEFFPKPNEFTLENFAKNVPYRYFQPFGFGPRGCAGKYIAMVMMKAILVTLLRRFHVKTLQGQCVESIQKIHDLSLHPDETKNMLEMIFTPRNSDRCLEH

Molecular target: aromatase (Homo sapiens, UniProt P11511)
Details: read-out: aromatase inhibition IC50; cited from earlier work

Question: With CCC(=C(c1ccc(O)cc1)c1ccc(OCCN)cc1)c1ccccc1 [Norendoxifen, N,N-didesmethyl-4-hydroxytamoxifen] as the molecule, how does the IC50 read?
Answer: 90 nM
